The source of these data is PubChem BioAssay AID504357 (The Scripps Research Institute Molecular Screening Center, 2011).

Sequences of proteins named here, by UniProt entry; tags and fusion partners are left off.
UniProt P35372, whole entry, looked up: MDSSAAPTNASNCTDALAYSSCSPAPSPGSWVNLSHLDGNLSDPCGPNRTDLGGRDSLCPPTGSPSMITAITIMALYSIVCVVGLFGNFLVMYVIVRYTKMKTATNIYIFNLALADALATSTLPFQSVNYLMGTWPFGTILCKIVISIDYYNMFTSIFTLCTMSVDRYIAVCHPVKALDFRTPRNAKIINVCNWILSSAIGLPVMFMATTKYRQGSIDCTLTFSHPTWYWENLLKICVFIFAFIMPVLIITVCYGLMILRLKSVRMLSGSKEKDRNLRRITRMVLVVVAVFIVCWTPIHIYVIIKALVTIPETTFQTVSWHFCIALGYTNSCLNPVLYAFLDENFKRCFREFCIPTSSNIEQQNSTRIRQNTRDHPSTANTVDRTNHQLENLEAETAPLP
UniProt P41143, whole entry, looked up: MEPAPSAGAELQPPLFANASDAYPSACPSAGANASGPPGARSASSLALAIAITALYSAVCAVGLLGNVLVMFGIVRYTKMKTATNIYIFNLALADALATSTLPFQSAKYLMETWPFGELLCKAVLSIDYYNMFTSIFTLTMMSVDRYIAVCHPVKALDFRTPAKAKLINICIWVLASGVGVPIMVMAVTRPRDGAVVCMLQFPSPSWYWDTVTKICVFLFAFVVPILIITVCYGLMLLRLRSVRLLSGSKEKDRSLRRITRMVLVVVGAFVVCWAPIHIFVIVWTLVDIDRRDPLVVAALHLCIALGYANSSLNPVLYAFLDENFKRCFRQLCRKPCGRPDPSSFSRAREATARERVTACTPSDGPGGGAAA

Molecules are shown by their SMILES. This is a selection; strong and weak results do not stand in their true shares. The source made the active and inactive calls. Cut-off read from the data, not from the text of the source: active = inhibition above about 22% (passing the limit was not always enough); inactive = the rest.

The target of this test is Mu-type opioid receptor (Homo sapiens) + Delta-type opioid receptor (Homo sapiens) (UniProt P35372+P41143). The test can be described thus: OPRM1-OPRD1 heterodimer inverse agonism – cell-based, luminescence, primary screen (AID 504357).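 Note: 0% = cells with DMSO and 100% = wells without cells with DMSO.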 The following applies: cell-based MOR-DOR heterodimer luminescence, at 9.3 µM, active compounds read high.
As a reminder, the inhibition is the change of the read-out against control, counted positive when it falls. For the molecule `Nc1ccccc1[As](=O)(O)c1ccccc1`, the inhibition was inactive: 10%.
Take `O=C(O)COc1ccc([As](=O)(O)O)cc1[N+](=O)[O-]`: the inhibition is inactive: 5.63%.
In the case of `O=C(Cn1cnc2ccccc21)N/N=C/c1ccc([N+](=O)[O-])cc1`, the inhibition is inactive: -31.9%.
For `NC(=O)Cn1c(-c2nonc2N)nc2ccccc21`, the inhibition is inactive: -1.32%.
Next, `COCCN1CCn2c(nc3cc(NC(=O)NC4CCCCC4)ccc32)C1`: inactive: -6.11%; `CCOC(=O)c1ccccc1NC(=O)Cn1cnc2c1c(=O)n(C)c(=O)n2C`: inactive: -7.76%; `Nc1nonc1-c1nc2ccccc2n1CC(=O)N/N=C/c1ccc(-c2cccc(C(=O)O)c2)o1`: inactive: 11.3%.
The same measure for `Cc1ccc2c(c1)C1CN(C)CCC1N2C(=O)c1cn(-c2ccccc2)nc1-c1ccccc1` (stereo not drawn): inactive: -3.71%.
For the molecule `CCc1nc2ccccc2n1CC(=O)Nc1cc(C)on1`, the inhibition is inactive: 4.44%.
For the molecule `CC(C)c1ccc(NC(=O)C2CC(=O)Nc3nc4ccccc4n32)cc1` (stereo not drawn), the inhibition was inactive: 5.08%.
Next, `O=P(Nc1nccs1)(Oc1ccccc1)Oc1ccccc1`: inactive: -2.57%; `Cc1ccccc1NC(=O)Cn1c(NCC(C)O)nc2ccccc21` (stereo not drawn): inactive: 13%; `CCN(CC)CCn1c(C)nc2ccccc21`: inactive: 12.8%.
On to `Cn1c(=O)c2c(ncn2CC(=O)N2CCN(S(=O)(=O)c3ccc(Cl)cc3)CC2)n(C)c1=O`, for which the inhibition was inactive: -2.29%.
For `Cc1nc2ccccc2n1CC(=O)N/N=C/c1cccnc1`, the inhibition is inactive: 7.06%.
The same measure for `C/C(=N\NC(=O)Cn1c(-c2ccccn2)nc2ccccc21)c1cccc(O)c1`: inactive: 9.41%; for `CCN1CCC(Nc2ccnc3cc(Cl)ccc23)CC1`: inactive: 8.56%.
Next, `CN(C(=O)Cn1c(Cl)nc2c1c(=O)n(C)c(=O)n2C)C1CCS(=O)(=O)C1` (stereo not drawn): inactive: 1.49%.
Regarding `CCOP1(=S)c2c(C)nn(CCC#N)c2N=C(c2ccccc2F)N1C` (stereo not drawn), the inhibition is inactive: 15.1%.
Consider `Cn1c(=O)n(CC(=O)Nc2ccc(F)cc2)c2ccccc21`, for which the inhibition is inactive: 5.94%.
Next, `CCC(C)[C@H](NC(=O)N1CCn2c1nc1ccccc12)C(=O)NCCc1ccc(OC)c(OC)c1` (stereo partly drawn): inactive: 6.04%; `O=C(Nc1nc2ccccc2n1CCN1CCOCC1)c1ccc(Cn2cc([N+](=O)[O-])cn2)o1`: inactive: 8.65%.
For the molecule `N#Cc1ccc(NC(=O)Cn2c3[n+](c4ccc(C(F)(F)F)cc42)CCCCC3)cc1`, the inhibition was inactive: 8.86%.
For the molecule `O=C1NCN(c2ccccc2)C12CCN(c1nnnn1-c1ccccc1)CC2`, the inhibition was inactive: -1.61%.
With `CN(C)C(=O)Cn1c(SCC(=O)N2CCCc3ccccc32)nc2ccccc21`, the inhibition was inactive: -3.23%.
The same measure for `COC(=O)[C@H](CCSC)NC(=O)Cn1cnc2c(SC)nc(N)nc21`: inactive: 25%; for `O=C(Cn1cnc2ccccc21)N1CCc2ccccc21`: inactive: -8.98%; for `CS(=O)(=O)c1cc([N+](=O)[O-])c2no[n+]([O-])c2c1`: inactive: -15.7%.
As to `Cn1c(=O)c2c(ncn2CC(=O)Nc2ccc3c(c2)OCO3)n(C)c1=O`, the inhibition was inactive: -9.45%.
With `Cc1ccc(/C=N\NC(=O)Cn2c(C)nc3ccccc32)o1`, the inhibition is inactive: 9.17%.
In the case of `CC(C(O)c1ccccc1)N(C)CCn1cnc2c1c(=O)n(C)c(=O)n2C` (stereo not drawn), the inhibition is inactive: 16.9%.
`C[C@H](NC(=O)N1CCn2c1nc1ccccc12)C(=O)NCc1ccc2c(c1)OCO2`: the inhibition is inactive: 12.1%.
In the case of `CCN(Cc1ccccc1)C(=O)Cn1cnc2c1c(=O)n(C)c(=O)n2C`, the inhibition was inactive: 11.8%.
In the case of `CCN(CC)CCn1c(=N)n(CC(O)COc2ccccc2)c2ccccc21` (stereo not drawn), the inhibition is inactive: 10.8%.
The same measure for `Fc1ccc2c(c1)nnn2C1CCN(Cc2c(Cl)cccc2Cl)CC1`: inactive: -18.2%; for `CC(C)[C@H](NC(=O)N1CCn2c1nc1ccccc12)C(=O)NCc1ccco1`: inactive: 13%.
Turning to `Cn1c(=O)c2c(nc(CN3CCN(c4ccccc4F)CC3)n2CCN2CCOCC2)n(C)c1=O`, the inhibition was inactive: 6.56%.
In the case of `CN(C(=O)Cc1ccccc1)[C@@H]1CC[C@]2(CCCO2)C[C@H]1N1CCCC1`, the inhibition is inactive: 1.31%.
With `CCOP1(=S)c2c(C)nn(CCC#N)c2N=C(c2ccc(F)cc2)N1C` (stereo not drawn), the inhibition was inactive: -0.85%.
`O=C(Nc1ccccc1)N1CCn2c1nc1ccccc12`: the inhibition is inactive: -8.37%.
Next, `N#CCCN(C(=O)COC(=O)C(O)(c1ccccc1)c1ccccc1)c1ccc(F)cc1`: inactive: 7.25%; `O=C(Cn1cnc2ccccc21)N/N=C/c1ccccc1[N+](=O)[O-]`: inactive: 8.18%.
For the molecule `O=C(CSc1nc2ccccc2n1CC(=O)N1CCCC1)Nc1nccs1`, the inhibition was inactive: 14.5%.
Take `CCOC(=O)c1ccc(N2C(=O)CC(N3CCC(Nc4ccc(F)cc4)CC3)C2=O)cc1` (stereo not drawn): the inhibition was inactive: 9.1%.
With `COc1ccc(CNC(=O)[C@H](CCSC)NC(=O)N2CCn3c2nc2ccccc23)cc1`, the inhibition is inactive: 7.69%.
Consider `Cc1ccc2c(c1)C1CN(C)CCC1N2C(=S)NC(=O)c1ccc(Br)cc1` (stereo not drawn), for which the inhibition was inactive: 25.3%.
Next, `CCc1cccc(C)c1NC(=O)Cn1c(NCCO)nc2ccccc21`: inactive: 10.3%.
Regarding `CN(C(=O)Cc1ccc(Cl)c(Cl)c1)[C@H]1CC[C@@]2(CCCO2)C[C@@H]1N1CCCC1`, the inhibition is inactive: -255%.
For the molecule `CC(C)CN(C(=O)Cn1c(C(F)(F)F)nc2ccccc21)C1CCS(=O)(=O)C1` (stereo not drawn), the inhibition is inactive: 4.98%.
Regarding `O=[N+]([O-])c1ccc2c(c1)nnn2O`, the inhibition is inactive: 0.1%.
Take `CC1CCCCN1C(=O)Cn1cnc2c1c(=O)n(C)c(=O)n2C` (stereo not drawn): the inhibition is inactive: 8.46%.
Consider `CN(C)C(=O)c1cc([N+](=O)[O-])cc2c1-c1c(cc([N+](=O)[O-])cc1[N+](=O)[O-])C2=O`, for which the inhibition is inactive: -59.1%.
With `CCC(C)[C@H](NC(=O)N1CCn2c1nc1ccccc12)C(=O)NCc1ccc(OC)cc1` (stereo partly drawn), the inhibition was inactive: -13.5%.
Take `Cn1c(=O)[nH]c(=O)c2c1ncn2CCN1CCOCC1`: the inhibition is inactive: 1.65%.
As for `CCC(C)NC(=O)Cn1c(COc2ccc(Cl)cc2Cl)nc2ccccc21` (stereo not drawn), the inhibition is inactive: -11.8%.
The same measure for `Cc1ccc(C(=O)Nc2nc3ccccc3n2CCN2CCCC2)cc1`: inactive: -17.4%; for `CCN(CC)CCn1c(NCc2ccc(C)o2)nc2ccccc21`: inactive: 8.38%; for `O=C(Nc1nc2ccccc2n1CCN1CCCC1)C1CCCCC1`: inactive: 8.13%.
As to `Cn1c(=O)c2c(ncn2CC(=O)N(Cc2ccccc2)c2ccccn2)n(C)c1=O`, the inhibition is inactive: 18.8%.
The same measure for `CCCCNC(=O)Cn1c(=O)n(C)c2ccccc21`: inactive: -1.95%; for `O=C(Cn1cnc2c(NCc3ccccc3)ncnc21)NCCc1cc2ccccc2[nH]1`: inactive: 7.89%.
Next, `NC(=O)Nc1ccc([As](=O)(O)O)cc1`: inactive: 17%; `O=C(Cn1cnc2ccccc21)N/N=C/c1cccc([N+](=O)[O-])c1`: inactive: -4.88%.
Turning to `CC(=O)OCCNC(=O)Cn1cnc2c1c(=O)n(C)c(=O)n2C`, the inhibition was inactive: 14.8%.
Next, `Cc1cccc(C)c1NC(=O)Cn1cnc2c(=O)n(C)c(=O)n(C)c21`: inactive: 8.45%; `Cc1nc2ccccc2n1C1CC(=O)N(N(C)C)C1=O` (stereo not drawn): inactive: 18.6%; `CC(=O)Nc1nc2ccccc2n1CCN1CCOCC1`: inactive: 1.23%.
On to `CCOC(=O)C1=C(Cn2cnc3ccccc32)NC(=O)NC1c1ccc(OC)cc1` (stereo not drawn), for which the inhibition is inactive: 5.62%.
For the molecule `O=C(CCCCCNC(=O)N1CCn2c1nc1ccccc12)NCc1ccc(Cl)cc1`, the inhibition was inactive: 10.1%.
Turning to `CC1Cc2ccccc2N1C(=O)CSc1nc2ccccc2n1CC(=O)N1CCOCC1` (stereo not drawn), the inhibition is inactive: 3.8%.
Turning to `CC(C)NC(=S)N1CCn2c(nc3ccccc32)C1`, the inhibition was inactive: 0.7%.
`Nc1nc2ccccc2n1CCN1CCCC1`: the inhibition is inactive: 10.7%.
For the molecule `COc1ccc(CC(C)NCC(O)c2ccc(O)c(NC=O)c2)cc1` (stereo not drawn), the inhibition is inactive: 13.9%.
On to `FC(F)(F)c1ccc2c(c1)ncn2C1CCN(Cc2nnnn2C2CCCCC2)CC1`, for which the inhibition was inactive: 1.41%.
On to `Cc1nn2c3ccccc3n(CCN3CCCCC3)c2nc1=O`, for which the inhibition was inactive: 11.1%.
`Cc1ccc2c(c1)C1CN(C)CCC1N2S(=O)(=O)c1ccc(C#N)cc1` (stereo not drawn): the inhibition is inactive: 14.3%.
Next, `O=C(Cn1c(CO)nc2ccccc21)NC1CCCCCC1`: inactive: 14.7%; `N#CCC(=O)N1CCn2c1nc1ccccc12`: inactive: 12.9%; `CCN(CC)CCn1c(NCc2cc(OC)ccc2OC)nc2ccccc21`: inactive: 14.9%.
Regarding `CCOC(=O)CSc1nc2ccccc2n1CC(=O)NC(C)(C)C`, the inhibition is inactive: 12%.
Turning to `COc1ccc(-c2csc(NCCn3c(C)nc4cc(C(F)(F)F)ccc43)n2)cc1`, the inhibition was inactive: 6.05%.
`O=C(Cn1c(-c2cncs2)nc2ccccc21)NC1CCCC1`: the inhibition is inactive: 18.2%.
Regarding `CCOC(=O)C1=C(C)N=C2SCCC(=O)N2[C@@H]1/C=C/c1ccccc1`, the inhibition was inactive: -36.9%.
Regarding `COC(=O)[C@H](CC(C)C)NC(=O)Cn1cnc2c(OCc3ccccc3)ncnc21`, the inhibition is inactive: 0.43%.
As for `Cc1cccc(OCC(=O)OC2CN3CCC2CC3)c1` (stereo not drawn), the inhibition was inactive: 7.88%.
Consider `C=CCOC(=O)C1=C(C)N=C2SCCC(=O)N2C1/C=C/c1ccccc1` (stereo not drawn), for which the inhibition was inactive: 5.05%.
Turning to `Cn1c(=O)c2c(ncn2CCN(CCO)Cc2ccccc2)n(C)c1=O`, the inhibition is inactive: 9.05%.
Turning to `O=[As](O)(c1cccc(O)c1)c1cccc(O)c1`, the inhibition is inactive: 10.3%.
`COc1ccc(CNc2nc3ccccc3n2CCN2CCOCC2)cc1`: the inhibition was inactive: 12.5%.
Regarding `CCN(CC)CCn1cnc2c1c(=O)n(CCOC(=O)c1cc(OC)c(OC)c(OC)c1)c(=O)n2C`, the inhibition is inactive: 13%.
For `O=C(Cn1cnc2ccccc21)Nc1cccc(S(=O)(=O)N2CCCC2)c1`, the inhibition was inactive: 5.04%.
As for `O=[N+]([O-])c1ccc2c(c1)nc1n2CCN(C2CCCCC2)C1`, the inhibition was inactive: 7.96%.
On to `COC(=O)Cn1c(=N)n(CCN2CCCCC2)c2ccccc21`, for which the inhibition is inactive: 13.5%.
